Reference: the NIST ThermoML archive (doi:10.1016/j.jct.2005.01.004)
± gives the expanded uncertainty stated by the source.

What was measured:
[1] = 298.15 K; 101.33 kPa; Liquid
[2] = refractive index (Na D-line) (dimensionless); conditions: 298.15 K; 101.33 kPa; Liquid; Standard Abbe refractometry

CCCCOCCCC [dibutyl ether]
mass density [1]: 763.95 ± 0.75 kg/m3 | refractive index [2]: 1.39668 ± 0.00075
